The numbers were not newly measured in US6060458A, “Oligodeoxyribonucleotides comprising O^6 -benzylguanine and their use” (The United States of America as represented by the …, priority 1998, dated 2000), which cites them from elsewhere.

Series [1] deals with T1, mutant human alkyltransferase G156A (Homo sapiens, UniProt P16455, G156A).
T1 construct: made in house; E. coli by own knowledge of pIN vectors
T1 sequence (P16455 1-207 G156A): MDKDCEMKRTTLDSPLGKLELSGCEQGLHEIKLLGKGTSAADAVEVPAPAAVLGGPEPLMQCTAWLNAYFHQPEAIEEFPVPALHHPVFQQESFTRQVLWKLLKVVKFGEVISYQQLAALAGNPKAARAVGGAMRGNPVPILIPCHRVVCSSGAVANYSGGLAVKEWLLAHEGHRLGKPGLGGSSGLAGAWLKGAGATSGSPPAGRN
To be noted: read-out: ED50 for inactivation of AGT, data previously published; cited from earlier work.

In series [2] the target is T2, mutant human alkyltransferase P140A (Homo sapiens, UniProt P16455, P140A).
T2 construct: made in house; E. coli by own knowledge of pIN vectors
T2 sequence (P16455 1-207 P140A): T1 sequence (P16455 1-207 G156A) with P140A, A156G
To be noted: read-out: ED50 for inactivation of AGT, data previously published; cited from earlier work.

Numbering of substitutions follows the chain as printed.

In the case of `Nc1nc(OCc2ccccc2)c2[nH]cnc2n1` [O^6 -benzylguanine], the figures for the IC50 in series [1] and in series [2] were 60 µM and 5 µM, respectively.
